Laboratory results reported in patent publication US5270344A, “Method of treating a systemic disorder using trioxolane and diperoxide compounds” (priority 1992, dated 1993).

What was measured:
[1] = Primary skin irritation test; conditions: 1.0% in isopropyl myristate, 0.5 ml per site, 24 h patch, intact and abraded skin, read 24 and 72 hours
[2] = Physical properties (viscosity, stability); conditions: compared with trioxolane derivative of cis 3-hexene-1-ol
human spermatozoa = test: Effect on human spermatozoa; format: cell-based; conditions: dilutions of less than 1:2×10^10 of the working concentrations
[3] = Tolerability of mice (intraperitoneal); format: in vivo; conditions: IP, 20 g balb/c mice
lymphocytes = test: Immunomodulatory activity (bone marrow examination); format: in vivo, Balb/c mice; conditions: compared to mice without any drug
[4] = system: Myeloma cell line (×63 balb/c line); test: Effect on myeloma cell line; format: cell-based, balb/c (mouse); conditions: dilutions of less than 1:2×10^10 of the working concentrations

Substance | Primary Irritation Index (PII) [1] | Stability (comparison) [2] | Viscosity (comparison) [2] | Time to kill human spermatozoa (human spermatozoa) | Minimum lethal dose [3] | New clones of lymphocytes in bone marrow (lymphocytes) | Time to kill myeloma cell line [4]
linalool trioxolane | 1.0 | – | – | – | – | – | –
Geraniol trioxolane | – | less stable | more viscous | ≤ 1 min | 3000 mg/kg | increase in new clones of lymphocytes | ≤ 48 h
